BindingDB's records for doi:10.1016/s0960-894x(98)00065-1 (University of Arizona, 1999)

Assay: Compound was tested for binding affinity towards Opioid receptor delta 1 in guinea pig brain homogenates using [3H][p-Cl-Phe]-DPDPE as radioligand

In the case of C[C@@H](NC(=O)[C@@H](N)Cc1ccc(O)cc1)C(=O)NCC(=O)N[C@@H](Cc1ccccc1)C(=O)NNC(=O)[C@H](Cc1ccccc1)NC(=O)CNC(=O)[C@@H](C)NC(=O)[C@@H](N)Cc1ccc(O)cc1 [2-Amino-N-((S)-1-{[(2-{N'-[2-(2-{(S)-2-[2-amino-3-(4-hydroxy-phenyl)-propionylamino]-propionylamino}-acetylamino)-3-phenyl-propionyl]-hydrazino}-1-benzyl-2-oxo-ethylcarbamoyl)-methyl]-carbamoyl}-ethyl)-3-(4-hydroxy-phenyl)-propionamide], the pKi was 8.28.

pKi: −log10 of the molar value.
